The results in this text go back to publication PMC6287599, “2,6-Bis(2-Benzimidazolyl)Pyridine (BBP) Is a Potent and Selective Inhibitor of Small Conductance Calcium-Activated Potassium (SK) Channels” (Frontiers in Pharmacology, 2018).

The assay addresses T1, hIK (Homo sapiens, UniProt O15554).
T1 construct: expressed in transfected cells; host or cells: HEK293 (transient, co-transfected with eGFP)
The assay can be described thus: Manual whole cell patch clamp, HEK293 transiently transfected with hIK. The class given is cell-based. Particulars: TRAM-34 1 μM. (The patch-clamp technique gives a direct electrical read-out from membranes.)

In the case of `Clc1ccccc1C(c1ccccc1)(c1ccccc1)n1cccn1` [TRAM-34, 1-[(2-chlorophenyl)diphenylmethyl]-1H-pyrazole, reference compound], the “Effect on IK current (reference blocker)” value is reported as “completely inhibited”.
